Source: patent publication US12274731B1, “Polybasic antimalarial agents and methods of use thereof” (priority 2018, dated 2025)

Tested on: human erythrocytes
Test: Hemolysis in erythrocyte culture
Assay type: cell-based
Settings: at IC50

poly-L-ornithine
hemolysis: without hemolysis
